The values that follow come from ChEMBL document CHEMBL1135758, “Toward a pharmacophore for drugs inducing the long QT syndrome: insights from a CoMFA study of HERG K(+) channel blockers” (J Med Chem, 2002).

Amino acid sequences for entries named in this document (tags omitted). A change or cut given only in a name is not applied to a line headed by its entry.
UniProt Q12809: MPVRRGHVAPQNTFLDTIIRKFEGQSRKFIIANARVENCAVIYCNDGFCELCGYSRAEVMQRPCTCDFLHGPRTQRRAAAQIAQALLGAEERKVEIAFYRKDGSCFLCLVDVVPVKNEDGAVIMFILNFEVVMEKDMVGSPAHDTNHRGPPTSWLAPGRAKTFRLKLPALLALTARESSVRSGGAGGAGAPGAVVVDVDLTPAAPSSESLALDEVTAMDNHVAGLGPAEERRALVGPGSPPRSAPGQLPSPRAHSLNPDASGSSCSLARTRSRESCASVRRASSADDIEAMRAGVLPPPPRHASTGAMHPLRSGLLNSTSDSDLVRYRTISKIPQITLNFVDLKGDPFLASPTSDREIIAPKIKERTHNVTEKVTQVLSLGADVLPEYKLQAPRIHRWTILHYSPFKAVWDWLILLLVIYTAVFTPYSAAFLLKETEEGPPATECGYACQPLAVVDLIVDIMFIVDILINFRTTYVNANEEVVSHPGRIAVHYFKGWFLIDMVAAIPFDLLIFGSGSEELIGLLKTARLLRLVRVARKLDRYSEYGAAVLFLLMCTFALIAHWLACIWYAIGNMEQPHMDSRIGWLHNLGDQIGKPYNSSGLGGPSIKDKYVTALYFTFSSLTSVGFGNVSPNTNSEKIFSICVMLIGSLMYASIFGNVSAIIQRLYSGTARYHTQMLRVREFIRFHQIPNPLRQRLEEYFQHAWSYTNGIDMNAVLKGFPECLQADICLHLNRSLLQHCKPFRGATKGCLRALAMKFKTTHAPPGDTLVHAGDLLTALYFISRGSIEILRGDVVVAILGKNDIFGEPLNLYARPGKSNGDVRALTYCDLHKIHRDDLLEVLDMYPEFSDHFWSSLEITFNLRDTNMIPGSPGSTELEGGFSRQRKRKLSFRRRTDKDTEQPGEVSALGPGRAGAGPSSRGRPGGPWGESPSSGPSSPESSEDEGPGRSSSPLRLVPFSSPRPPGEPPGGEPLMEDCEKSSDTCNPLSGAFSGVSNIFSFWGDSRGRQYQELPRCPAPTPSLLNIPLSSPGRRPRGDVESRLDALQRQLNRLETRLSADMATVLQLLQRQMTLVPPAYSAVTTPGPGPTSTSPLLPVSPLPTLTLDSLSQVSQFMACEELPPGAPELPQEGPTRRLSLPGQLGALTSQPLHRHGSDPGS

SMILES strings stand for the structures.

In experiment [1] the target is T1, Voltage-gated inwardly rectifying potassium channel KCNH2 (Homo sapiens, UniProt Q12809). Kind of experiment: K+ channel blocking activity in COS-7 African green monkey kidney derived cells expressing HERG Kv11.1. Format: functional, cell-based.
For experiment [2], the target named is T1, Voltage-gated inwardly rectifying potassium channel KCNH2.

The term IC50 denotes the concentration that gives 50% inhibition. `CC(C)COCC(CN(Cc1ccccc1)c1ccccc1)N1CCCC1` (stereo not drawn) [BEPRIDIL]: in experiment [1], the midpoint of inhibition, the IC50, lay at 550 nM.

On to `C1CCC(C(CC2CCCCN2)C2CCCCC2)CC1` (stereo not drawn) [PERHEXILINE], for which the IC50 in experiment [2] worked out at 7800 nM.

The molecule `O=C1Cc2cc(CCN3CCN(c4nsc5ccccc45)CC3)c(Cl)cc2N1` [ZIPRASIDONE] showed an IC50 in experiment [2] of 152 nM.
